Tested on: heart failure rat model
Test: Cardiac contractility in vivo in heart failure rat model (MI rat model)
Conditions: male Lewis rats, heart failure by ligation of left descending coronary artery, ejection fraction <35%; dosed acutely for 30 min
Protocol: Male Lewis rats (Charles River, USA) at 2-3 months of age were used for the study. […] APJ agonists were administered dose dependently acutely for a period of 30 min.

COc1cccc(OC)c1-n1c(NS(=O)(=O)[C@@H](C)[C@H](O)c2ncc(C)cn2)nnc1-c1cncc(C)c1 [Example 371.0, (1R,2S)—N-(4-(2,6-dimethoxyphenyl)-5-(5-methylpyridin-3-yl)-4H-1,2,4-triazol-3-yl)-1-hydroxy-1-(5-methylpyrimidin-2-yl)propane-2-sulfonamide]
cardiac contractility as measured by dP/dtmax (derivative of left ventricular pressure): increase in cardiac contractility

Reference: patent US10058550B2, “Methods of treating heart failure” (priority 2015, dated 2018)
